Experimental data taken from US7271162B2, “Cycloocta[b][1,4]diazepino[6,7,1-hi]indoles and derivatives” (Wyeth, priority 2000, dated 2007).

Amino acid sequences for entries named in this document (tags omitted). Residues count along the entry.
UniProt P28335, 33-458: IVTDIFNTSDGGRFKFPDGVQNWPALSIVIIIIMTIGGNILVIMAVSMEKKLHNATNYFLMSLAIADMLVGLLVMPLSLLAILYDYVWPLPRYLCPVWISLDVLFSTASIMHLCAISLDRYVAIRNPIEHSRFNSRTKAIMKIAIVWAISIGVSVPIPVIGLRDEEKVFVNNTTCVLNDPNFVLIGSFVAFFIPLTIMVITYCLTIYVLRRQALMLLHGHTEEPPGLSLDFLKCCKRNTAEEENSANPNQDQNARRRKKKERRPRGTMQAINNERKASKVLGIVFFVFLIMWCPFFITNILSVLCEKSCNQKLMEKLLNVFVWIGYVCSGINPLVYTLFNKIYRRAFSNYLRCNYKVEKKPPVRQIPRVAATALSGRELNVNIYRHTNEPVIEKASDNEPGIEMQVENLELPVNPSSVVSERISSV

Tests used:
[1] = target: T1, human 5-hydroxytryptamine2C (h5HT2C) receptor (Homo sapiens, UniProt P28335); assay: 5HT2C Receptor Binding Test Procedure ([125I] DOI displacement, membranes of transfected CHO cells); details: reference compounds, [125I] DOI binding, read-out: Ki value and 95% confidence interval
T1 construct: expressed in transfected cells; host or cells: CHO (Chinese Hamster Ovary) cells; membrane preparation

human 5-HT2C receptor = human 5-HT2C receptor (Homo sapiens, UniProt P28335); assay: Stimulation of [3H] Inositol Monophosphate Production by 5HT2C Agonists in transfected CHO cells; details: reference compounds

SMILES: Clc1cccc(N2CCNCC2)c1 [mCPP, meta-chlorophenylpiperazine]
- Ki [1]: 6.5 nM
- EC50 (human 5-HT2C receptor; [3H] IP1 production, CHO h5-HT2C cells): 46.8 nM
- EMAX (relative to 5-HT) (human 5-HT2C receptor; relative to 5-HT): 60%
